Results taken from PubChem BioAssay (Tox21).
“And” between values parts separate entries of the source, which are not always exact repeats. Equal values may be shown once. This is a selection; strong and weak results do not stand in their true shares. Results filed as inconclusive are left out. The source made the active and inactive calls. Calls come from the whole dose curve; as a rule, active = well fitted activation curve with a large enough effect in the repeat runs; inconclusive = weak or mixed curves, or effect the other way; inactive = no such curve, though single readings can be large or run the other way.

experiment: qHTS assay to identify small molecule agonists of the estrogen related receptor signaling pathway with the pleiotropic PPARgamma coactivator (PGC) from Tox21 10K library (AID 1224842); details: PGC/ERR reporter cell line, luciferase ONE-Glo, 18 h; at 42.5 µM (top of the series); note: nearly all actives have a fitted effect of over 15% in size
From the text: National Center for Advancing Translational Sciences [NCATS] NIH Chemical Genomics Center [NCGC] U.S. Environmental Protection Agency [EPA] National Institutes of Environmental Health Sciences [NIEHS] National Toxicology Program [NTP] Assay overview: Estrogen related receptors (ERRs), the first orphan nuclear receptors discovered, play an important role in the control of cellular energy metabolism. ERRs are required for high-energy production in response to the environmental challenges. The pleiotropic PPARgamma coactivator (PGC) is a major partner of ERR and a key regulator in energy homeostasis. Together they have been implicated in the etiology of metabolic disorders such as Type 2 diabetes and metabolic syndrome. ERR-alpha was also identified as an adverse marker for breast cancer progression; ERR-alpha-positive tumors have a poor prognosis. To screen and to identify environmental compounds that perturb the PGC/ERR signaling pathways could provide valuable information for potential therapeutic or preventive measures in the treatment of metabolic disease. For identifying PGC/ERR agonists, PGC/ERR cell line (provided by NTP) has been used to screen Tox21 10K library.
Assay Protocol Summary: The PGC/ERR cells were dispensed at 2,000 cells/5 ul/well in 1536-well white plates using a Multidrop dispenser. After the assay plates were incubated at a 37 C/5% CO2 incubator for 6 hours, 23 nL of compounds dissolved in DMSO, positive and negative controls or DMSO only was transferred to the assay plate by a pin tool. The plates were incubated at 37 C for 18 hours. 4 ul/well of One-Glo reagent was added into the assay plates using a Flying Reagent Dispenser. After 30-minute incubation at room temperature, the luminescence intensity in the plates was measured using a ViewLux plate reader.
% is set by controls: 0 for no effect and ±100 for the full control effect.

Row | Structure (SMILES) | activation
1 | Cc1cccc([N+](=O)[O-])c1[N+](=O)[O-] | inactive: -2.27%
2 | OCCSCCO | inactive: -4.69%
3 | C/C1=C2N=C(/C=C3N=C(/C(C)=C4\[N-][C@@](C)([C@@H]5N=C1[C@](C)(CCC(=O)NC[C@@H](C)OP(=O)([O-])O[C@H]1[C@@H](O)[C@@H](n6cnc7cc(C)c(C)cc76)O[C@@H]1CO)[C@H]5CC(N)=O)[C@@](C)(CC(N)=O)[C@@H]4CCC(N)=O)[C@@](C)(CC(N)=O)[C@@H]\3CCC(N)=O)C(C)(C)[C@@H]/2CCC(N)=O.[C-]#N.[Co+3] | inactive: -6.11%

same assay, conditions: PGC/ERR reporter cell line, luciferase ONE-Glo, 18 h; at 92.4 µM (top of the series)

Row | Structure (SMILES) | activation
4 | OCCSCCO | inactive: 3.2%
5 | COP(C)(=O)OC | inactive: -0.782% and inactive: -0.243%
6 | COc1ccc([N+](=O)[O-])cc1[N+](=O)[O-] | inactive: -1.24%
7 | CP(=O)(O)OCCC[Si](O)(O)O | inactive: 5.14%
8 | Cc1c([N+](=O)[O-])cccc1[N+](=O)[O-] | inactive: -1.83% and inactive: -1.52%
9 | Cc1ccc([N+](=O)[O-])c([N+](=O)[O-])c1 | inactive: -16.9% and inactive: -7.68%
10 | CCOP(=O)(CC)OCC | inactive: 0.0679%
11 | Cc1ccc([N+](=O)[O-])cc1[N+](=O)[O-] | inactive: 1.36% and inactive: 0.116%
12 | Nc1cc([N+](=O)[O-])cc([N+](=O)[O-])c1O | inactive: -11.9%
13 | CC(C)N(CCO)C(C)C | inactive: -6.85%
14 | CC(C)OP(C)(=O)OC(C)C | inactive: -22.1% and inactive: 5.95%
15 | O=[N+]([O-])c1cccc([N+](=O)[O-])c1 | inactive: 0.924%
16 | O=[N+]([O-])OCC(CO[N+](=O)[O-])(CO[N+](=O)[O-])CO[N+](=O)[O-] | inactive: 1.73%
17 | N#CBr | inactive: 2.96%
